Here are results for one compound from ChEMBL document CHEMBL4649982, “Selective targeting of Bromodomains of the Bromodomain-PHD Fingers family impairs osteoclast differentiation” (ACS Chem Biol, 2017).

In this assay the target is T1, Bromodomain-containing protein 1 (Homo sapiens) (UniProt O95696).
T1 sequence (whole entry): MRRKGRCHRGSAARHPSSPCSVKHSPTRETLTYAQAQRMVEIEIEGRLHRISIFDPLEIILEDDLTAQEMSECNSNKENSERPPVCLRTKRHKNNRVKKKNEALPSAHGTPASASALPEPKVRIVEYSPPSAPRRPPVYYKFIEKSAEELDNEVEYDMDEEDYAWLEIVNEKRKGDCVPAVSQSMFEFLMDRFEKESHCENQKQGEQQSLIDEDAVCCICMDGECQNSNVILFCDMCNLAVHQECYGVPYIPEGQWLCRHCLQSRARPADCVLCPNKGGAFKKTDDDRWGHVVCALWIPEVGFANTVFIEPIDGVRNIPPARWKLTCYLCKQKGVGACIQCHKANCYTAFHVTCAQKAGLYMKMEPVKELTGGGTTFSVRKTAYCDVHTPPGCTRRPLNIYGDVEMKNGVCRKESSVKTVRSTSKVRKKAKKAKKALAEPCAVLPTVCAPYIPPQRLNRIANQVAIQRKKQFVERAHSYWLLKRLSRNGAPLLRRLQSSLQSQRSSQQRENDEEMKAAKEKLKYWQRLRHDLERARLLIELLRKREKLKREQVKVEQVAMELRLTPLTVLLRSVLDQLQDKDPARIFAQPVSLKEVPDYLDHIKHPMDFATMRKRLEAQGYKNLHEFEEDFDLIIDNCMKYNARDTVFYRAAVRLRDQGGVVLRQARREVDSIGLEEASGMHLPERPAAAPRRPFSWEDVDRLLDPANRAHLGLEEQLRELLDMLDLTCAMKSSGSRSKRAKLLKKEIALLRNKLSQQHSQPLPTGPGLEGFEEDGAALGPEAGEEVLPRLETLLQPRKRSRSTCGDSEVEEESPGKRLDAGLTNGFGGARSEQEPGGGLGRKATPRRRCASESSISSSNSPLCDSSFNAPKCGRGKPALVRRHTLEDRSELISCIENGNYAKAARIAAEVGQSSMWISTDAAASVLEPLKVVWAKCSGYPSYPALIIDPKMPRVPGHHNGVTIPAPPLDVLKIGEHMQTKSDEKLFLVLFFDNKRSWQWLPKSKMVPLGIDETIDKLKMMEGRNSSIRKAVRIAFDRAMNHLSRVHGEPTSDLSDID
The note with it: Compound concentration 10.0 uM, Protein concentration 2.0 uM.

Molecules are shown by their SMILES.

Usually ΔTm stands for the change in melting temperature against a reference sample. In the case of `COc1cc2c(cc1NS(=O)(=O)c1ccc(Br)cc1C)n(C)c(=O)n2C`, the shift in melting temperature (ΔTm) stood at 3.27 °C.
